{"source": "patent US6395267B1", "about": "“TNF receptor action modulation” (Yeda Research and Development Co. Ltd., priority 1992, dated 2002)", "system": "A9 transfectants expressing mutant receptors with deletion of the intracellular amino acids 405 to 426", "assay": "Cytocidal effect of TNF and of antibodies to hu-p55-TNF-R (neutral red uptake)", "format": "cell-based", "conditions": "transfectants with deletion 405 to 426; TNF acting via the endogenous murine receptors", "description": "The cDNA of the human p55 TNF-R (Nophar et al., 1990) was digested with the BanII and Nhel restriction enzymes, resulting in removal of large parts of the 5′ and 3′ non-coding regions. Mutants Δ:405-426 and Δ:415-426 (FIG. 3) were generated by oligonucleotide directed mutation of this shortened form of the cDNA, using the “Altered Sites” mutagenesis kit of Promega. Stop codons were introduced after cysteine 404 (mutant Δ:405-426; amino acids in the receptor are numbered according to Loetscher et al., 1990), using the oligonucleotide 5′ CTGCTGGGCTGCTAGCCTGGAGGACAT 3′ (SEQ ID NO:3), and after glycine 414 (mutant Δ:416-426), using the oligonucleotide 5′AAGCCCTTTGCGGCTAGCCCCGCCGCCCT-3′ (SEQ ID NO:4). […]\nCells of the murine A9 line were cultured with Dulbecco's modified Eagle's Medium (DMEM), containing 10% fetal calf serum, 100 units/ml penicillin and 100 μg/ml streptomycin (growth medium). […] Of all transfectants at least three different clones were analysed in the functional assays to check for clone-to-clone variations of their properties.\nCells were seeded into 96 well plates, 24 hr before the assay at a density of 30,000 cells per well. […] After further 11 hours of incubation at 37° C., viability of the cells was assessed in a neutral red uptake assay as described before (Wallach, 1984)."}
{"substance": "human TNF: Recombinant human TNF-α produced by Genentech", "values": [{"measurement": "response of cells to human TNF", "result": "could respond"}]}
